# From IntAct's records for PubMed 25517094
# B1: Programmed cell death 6-interacting protein (Homo sapiens), Q8WUM4 (parent)
# chain: MATFISVQLKKTSEVDLAKPLVKFIQQTYPSGGEEQAQYCRAAEELSKLRRAAVGRPLDKHEGALETLLRYYDQICSIEPKFPFSENQICLTFTWKDAFDKGSLFGGSVKLALASLGYEKSCVLFNCAALASQIAAEQNLDNDEGLKIAAKHYQFASGAFLHIKETVLSALSREPTVDISPDTVGTLSLIMLAQAQEVFFLKATRDKMKDAIIAKLANQAADYFGDAFKQCQYKDTLPKEVFPVLAAKHCIMQANAEYHQSILAKQQKKFGEEIARLQHAAELIKTVASRYDEYVNVKDFSDKINRALAAAKKDNDFIYHDRVPDLKDLDPIGKATLVKSTPVNVPISQKFTDLFEKMVPVSVQQSLAAYNQRKADLVNRSIAQMREATTLANGVLASLNLPAAIEDVSGDTVPQSILTKSRSVIEQGGIQTVDQLIKELPELLQRNREILDESLRLLDEEEATDNDLRAKFKERWQRTPSNELYKPLRAEGTNFRTVLDKAVQADGQVKECYQSHRDTIVLLCKPEPELNAAIPSANPAKTMQGSEVVNVLKSLLSNLDEVKKEREGLENDLKSVNFDMTSKFLTALAQDGVINEEALSVTELDRVYGGLTTKVQESLKKQEGLLKNIQVSHQEFSKMKQSNNEANLREEVLKNLATAYDNFVELVANLKEGTKFYNELTEILVRFQNKCSDIVFARKTERDELLKDLQQSIAREPSAPSIPTPAYQSSPAGGHAPTPPTPAPRTMPPTKPQPPARPPPPVLPANRAPSATAPSPVGAGTAAPAPSQTPGSAPPPQAQGPPYPTYPGYPGYCQMPMPMGYNPYAYGQYNMPYPPVYHQSPGQAPYPGPQQPSYPFPQPPQQSYYPQQ
# Variants of: B1
# Settings: with SH3GL1, Q99961-1
row,Variant,effect of a mutation on the interaction
1,R757E,decreasing interaction strength
